Experiments:
Test in all cases: drug sensitivity score (DSS) (DSS (unitless, 0-50 scale)); higher = more sensitive (stronger viability inhibition); extreme values may be limits of the assay
Conditions in all cases: 72 h; culture: 2D
Bowes = tested on: Bowes
Procedure, shortened: (§1)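 Drug sensitivity scores, modified area-under-curve measures, were derived from dose-response curves fitted in the in-house Breeze software. The curves came from melanoma cell lines and patient-derived melanoma cultures (1000–1500 cells per well) grown in 2D in 384-well plates holding a 527-compound oncology library. Each compound was dissolved in DMSO or water and tested at five concentrations across a 10,000-fold range. Viability was read by CellTiter-Glo luminescence after 72 h at 37 °C.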

FM-MEL-6 = tested on: FM-MEL-6
Procedure, shortened: as §1

SK-MEL-28 = tested on: SK-MEL-28
Procedure, shortened: as §1

WM165 = tested on: WM165
Procedure, shortened: as §1

FM-MEL-3 = tested on: FM-MEL-3
Procedure, shortened: as §1

FM-MEL-2 = tested on: FM-MEL-2
Procedure, shortened: as §1

WM852 = tested on: WM852
Procedure, shortened: as §1

SK-MEL-2 = tested on: SK-MEL-2
Procedure, shortened: as §1

Measured: drug sensitivity score

NCc1ccc(OCCCc2sc(-c3ccc4c(c3)/C(=N/Nc3nc5ccccc5s3)CCC4)nc2C(=O)O)cc1 [WEHI-539]
0: all assays above

Reference: the supplement of paper PMC8633005
